Measurements taken from ChEMBL document CHEMBL1121560, “Synthesis and biological activity of 5-fluoro-2'-deoxyuridine 5'-phosphorodiamidates” (J Med Chem, 1980).

Target: T1, Thymidylate synthase (Lactobacillus casei) (UniProt P00469)
T1 sequence (whole entry): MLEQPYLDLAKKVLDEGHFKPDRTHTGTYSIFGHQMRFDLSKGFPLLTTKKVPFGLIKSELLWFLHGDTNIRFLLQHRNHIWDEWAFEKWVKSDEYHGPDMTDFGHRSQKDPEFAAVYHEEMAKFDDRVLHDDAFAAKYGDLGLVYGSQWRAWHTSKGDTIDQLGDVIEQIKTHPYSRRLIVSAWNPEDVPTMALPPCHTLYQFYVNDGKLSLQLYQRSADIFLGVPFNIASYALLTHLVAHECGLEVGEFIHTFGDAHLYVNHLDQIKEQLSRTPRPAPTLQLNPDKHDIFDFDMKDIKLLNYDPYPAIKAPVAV
Test: Compound was tested for its inhibition against Thymidylate synthase up to concentration of 1 mM; IA means inactive
Settings: Lacticaseibacillus casei

## O=c1[nH]c(=O)n([C@H]2C[C@H](O)[C@@H](COP(=O)(n3ccnc3)n3ccnc3)O2)cc1F
  inhibition: inactive

Active and inactive are the calls of the source. No cut-off for these calls is given here.
